Laboratory results taken from ChEMBL document CHEMBL1146197, “Evolution of TEM-type enzymes: biochemical and genetic characterization of two new complex mutant TEM enzymes, TEM-151 and TEM-152, from a single patient” (Antimicrob Agents Chemother, 2007).

Key:
Escherichia coli [1] = experiment: Activity of Escherichia coli BL21(DE3) beta-lactamase TEM28
Escherichia coli [2] = experiment: Activity of Escherichia coli BL21(DE3) beta-lactamase TEM151
Escherichia coli [3] = experiment: Activity of Escherichia coli BL21(DE3) beta-lactamase TEM152
Escherichia coli [4] = experiment: Activity of Escherichia coli BL21(DE3) beta-lactamase TEM1
Escherichia coli [5] = experiment: Activity of Escherichia coli BL21(DE3) beta-lactamase TEM36
Escherichia coli [6] = experiment: Activity of Escherichia coli BL21(DE3) beta-lactamase TEM29

CC1(C)S[C@@H]2[C@H](NC(=O)Cc3ccccc3)C(=O)N2[C@H]1C(=O)O
Km (Escherichia coli [1]): 17 µM
kcat (Escherichia coli [1]): 243 s⁻¹
kcat/Km (Escherichia coli [1]): 1.43e+07 M⁻¹ s⁻¹
Km (Escherichia coli [2]): 25 µM
kcat (Escherichia coli [2]): 251 s⁻¹
kcat/Km (Escherichia coli [2]): 1e+07 M⁻¹ s⁻¹
Km (Escherichia coli [3]): 15 µM
kcat (Escherichia coli [3]): 196 s⁻¹
kcat/Km (Escherichia coli [3]): 1.3e+07 M⁻¹ s⁻¹
Km (Escherichia coli [4]): 34 µM
kcat (Escherichia coli [4]): 1500 s⁻¹
kcat/Km (Escherichia coli [4]): 4.4e+07 M⁻¹ s⁻¹
Km (Escherichia coli [5]): 60 µM
kcat (Escherichia coli [5]): 800 s⁻¹
kcat/Km (Escherichia coli [5]): 1.33e+07 M⁻¹ s⁻¹
Km (Escherichia coli [6]): 12 µM
kcat (Escherichia coli [6]): 235 s⁻¹
kcat/Km (Escherichia coli [6]): 1.96e+07 M⁻¹ s⁻¹
